Results as given in US20260357306A1, “ONE-POT FERMENTATIVE PRODUCTION OF GLYCOLATE OR OTHER HYDROXYCARBOXYLIC ACIDS” (PHYCUS BIOTECHNOLOGIES INC., priority 2023, published 2026).

Tested on: OCCO
Test: purified protein, by the assay type
Conditions: other: role: substrate, 100 mM Tris-HCl pH 8.5, 30 °C, saturating NAD, EG 1-100 mM

Substance | Km | Vmax [µmol/min/mg]
Moraxella sp. (strain TAE123) alcohol dehydrogenase mtaADH, SEQ ID NO: 209 (Moraxella sp. TAE123) | 210 ± 65 μM EG | 3.2 ± 0.7
Mycobacterium marinum alcohol dehydrogenase mmaADH, SEQ ID NO: 215 (Mycobacterium marinum M) | 77 ± 8 mM | 2.2 ± 0.1
